Measured values as given in published antibiotic growth screens (doi:10.1038/s41589-023-01349-8).
The list shows a part of the results.

Each compound was assayed on A. baumannii ATCC 17978 (assay: relative growth (fraction of control); higher = less inhibition). Details: 50 µM.

SMILES	relative growth
O=C(CCCCCCC(=O)Nc1ccc([C@H]2O[C@@H](CSc3nc(-c4ccccc4)c(-c4ccccc4)o3)C[C@H](c3ccc([N+](=O)[O-])cc3)O2)cc1)NO	1.41
CN(c1ccc(N)cc1[N+](=O)[O-])S(C)(=O)=O	1
COc1cccc(S(=O)(=O)N2C[C@H](O)COC[C@H]3O[C@H](CC(=O)N4CCOCC4)CC[C@@H]32)c1	0.894
COc1c2ccoc2cc2oc(C)cc(=O)c12	1.14
[N-]=[N+]=NCc1ccccc1C[C@]1(C(=O)NCCN2CCOCC2)COC(c2ccc(OCCCO)cc2)=N1	0.697
Cc1ccc(S(=O)(=O)NCC[C@H]2CC[C@H](NS(=O)(=O)c3ccccc3Cl)[C@@H](CO)O2)cc1	0.942
C[C@@H]1CN([C@H](C)CO)S(=O)(=O)c2ccc(C#CCN(C)C)cc2O[C@H]1CN(C)C(=O)Nc1ccccc1F	0.948
C[C@H]1CN([C@@H](C)CO)S(=O)(=O)c2ccc(C#CC(C)(C)O)cc2O[C@H]1CN(C)C(=O)C1CCCCC1	0.967
CCCCCC(=O)Cc1cc(O)cc(O)c1C(=O)Oc1cc(CC(=O)CCCCC)c(C(=O)O)c(OC)c1	1.11
O=C(O)C[C@@H]1CC[C@H]2[C@@H](COC[C@H](O)CN2S(=O)(=O)c2ccc(F)cc2)O1	1.05
COc1ccc(-c2coc3cc(O)ccc3c2=O)c(O)c1O	1.09
CC(=O)O[C@@]12CO[C@@H]1C[C@H](O)[C@@]1(C)C(=O)[C@H](O)C3=C(C)[C@@H](OC(=O)[C@H](O)[C@@H](NC(=O)OC(C)(C)C)c4ccccc4)C[C@@](O)([C@@H](OC(=O)c4ccccc4)C12)C3(C)C.O.O.O (stereo not given in full)	1.29
C[C@H](CO)N1C[C@H](C)[C@H](CN(C)S(=O)(=O)c2cn(C)cn2)Oc2cc(C3=CCCC3)ccc2S1(=O)=O	1.07
COCC#Cc1ccc2c(c1)O[C@@H](CN(C)S(=O)(=O)c1ccc(C)cc1)[C@@H](C)CN([C@@H](C)CO)S2(=O)=O	1.02
C=CC[C@@H](CC(=O)NCCO)C(=O)N[C@@H](COC(=O)[C@@H](CC=C)CC(=O)OC(C)(C)C)Cc1ccccc1	1.02
CN[C@@H]1[C@H](O)[C@H](NC)[C@H]2O[C@@]3(O)C(=O)C[C@@H](C)O[C@H]3O[C@@H]2[C@H]1O.Cl.Cl	0.538
NCCSC12CC3CC(CC(C3)C1)C2	0.899
CC(C)CN1C(=O)C[C@@H](N2CCOCC2)C1=O	0.979
O=C(O)c1ccc(-n2nc(-c3ccccc3O)nc2-c2ccccc2O)cc1	1.15
CC(C)(C)NCC(O)COc1cccc2c1C[C@H](O)[C@H](O)C2 (mixture of isomers)	0.922
COc1cc2nc(N3CCCN(Cc4ccccc4)CC3)nc(NC3CCN(Cc4ccccc4)CC3)c2cc1OC	0.931
CO[C@H](CN(C)C(=O)c1ccc2c(c1)OCO2)[C@@H](C)CN([C@H](C)CO)S(=O)(=O)c1ccc(C)cc1	1.07
Cn1c(=O)c2c(NCCO)ccnc2n(C)c1=O	0.908
CN1C(C(=O)Nc2ccccn2)=C(O)c2ccccc2S1(=O)=O	1.19
COc1c(C)c2c(c(O)c1C/C=C(\C)CCC(=O)OCCN1CCOCC1)C(=O)OC2	0.919

SMILES	relative growth
C[C@H](O)C#Cc1cnc2c(c1)C(=O)N([C@@H](C)CO)C[C@@H](C)[C@H](CN(C)C(=O)Nc1ccc(C(F)(F)F)cc1)O2	0.992
COCCOC(=O)C1=C(C)NC(C)=C(C(=O)OC(C)C)C1c1cccc([N+](=O)[O-])c1 (stereo not given)	1.21
NC(=O)N1CCC(=O)Nc2ccccc21	1.01
CCS(=O)(=O)NCC[C@@H]1CC[C@@H](NC(=O)Cc2ccccn2)[C@H](CO)O1	1.02
CC[N+](C)(C)c1cccc(O)c1.[Cl-]	1.27
O=C(C[C@H]1C=C[C@@H](NC(=O)Cc2ccccn2)[C@@H](CO)O1)NCCCN1CCOCC1	0.935
C[C@H]1O[C@@H](O[C@H]2[C@@H](O)C[C@H](O[C@H]3[C@@H](O)C[C@H](O[C@H]4CC[C@]5(C)C6CC[C@]7(C)[C@@H](C8=CC(=O)OC8)CC[C@]7(O)C6CC[C@@H]5C4)O[C@@H]3C)O[C@@H]2C)C[C@H](O)[C@@H]1O (stereo not given in full)	1.01
CSc1ccc(Sc2ccc(SC)cc2)cc1	1.08
Cc1ccc(S(=O)(=O)N2C[C@H](O)COC[C@@H]3O[C@@H](CC(=O)NCc4ccc(Cl)c(Cl)c4)CC[C@H]32)cc1	0.875
c1coc(-c2nc3ccccc3n2CCC2CCCCC2)c1	0.74
CNC[C@@H](O)c1ccc(O)c(O)c1.O=C(O)C(O)C(O)C(=O)O	1.08
COCC#Cc1ccc2c(c1)O[C@@H](CN(C)S(=O)(=O)c1cccc(F)c1)[C@@H](C)CN([C@@H](C)CO)S2(=O)=O	0.985
C[C@H](CO)N1C[C@H](C)[C@H](CN(C)C(=O)c2ccccc2)Oc2cc(C#C[C@@H](C)O)ccc2S1(=O)=O	0.955
NC(=O)C[C@H]1Sc2ccccc2NC1=O	0.938
O=C1O[C@@H](c2ccccc2)[C@@H](c2ccccc2)N2[C@@H](c3ccc(OCCO)cc3)[C@]3(C(=O)Nc4ccc(C#CC5=CCCCC5)cc43)[C@@H](C(=O)N3CCCCCCC3)[C@H]12	0.999
CNC[C@@H]1Oc2cc(C#CC(C)(C)O)ccc2S(=O)(=O)N([C@@H](C)CO)C[C@H]1C	1.04
OC[C@@H](O)[C@@H](O)[C@@H](O)[C@H](O)[C@@H](O)CO	0.985
COCCOC(=O)N1C(=O)[C@@]2(c3cc(C#CC4=CCCCC4)ccc31)[C@H](C(=O)N1CCc3cc(OC)c(OC)cc3C1)[C@H]1C(=O)O[C@H](c3ccccc3)[C@H](c3ccccc3)N1[C@@H]2c1ccc(O)cc1	1.09
COc1cc2c(c3ccccc13)OC(C)(C)C=C2	1.07
NNC(=O)C1[C@H]2CCCC[C@@H]12 (stereo not given in full)	0.887
Cc1ccc(Oc2ccc(CN)cc2)cc1	0.673
O=C(C[C@@H]1CC=CCC[C@@H](Cc2ccc(F)cc2)C(=O)OC[C@@H](Cc2c[nH]c3ccccc23)NC1=O)N[C@H](CO)Cc1ccccc1	0.818
C=CCOC(=O)[C@H]1[C@@H]2C(=O)O[C@@H](c3ccccc3)[C@@H](c3ccccc3)N2[C@@H](c2ccc(OCCOC(=O)[C@H]3C[C@H]4C(=O)N[C@@H](CCCC[N+](C)(C)C)C(=O)N4[C@H]3c3cccc(OCCO)c3)cc2)[C@]12C(=O)Nc1ccccc12	1.44
CC(C)CC#Cc1ccc2c(c1)O[C@@H](CN(C)S(=O)(=O)c1cccc(F)c1)[C@@H](C)CN([C@H](C)CO)S2(=O)=O	1.15
CO[C@H]1CN(C)C(=O)c2ccc(NC(=O)C3CC3)cc2OC[C@@H](C)N(C(=O)Cc2ccccn2)C[C@@H]1C	1.23

SMILES	relative growth
COc1ccc(S(=O)(=O)N2C[C@H](O)COC[C@H]3O[C@H](CC(=O)N[C@H]4CCN(Cc5ccccc5)C4)CC[C@@H]32)cc1	1.09
COCC(=O)N1C[C@H](C)[C@@H](OC)CN(C)C(=O)c2cc(NC(=O)c3ccc(OC)cc3)ccc2OC[C@H]1C	1.05
CCCCCOC(=O)Nc1nc(=O)n(C2O[C@H](C)[C@@H](O)[C@H]2O)cc1F (stereo not given in full)	1.08
C[C@@H]1CCCCO[C@@H](CN(C)Cc2ccc3c(c2)OCO3)[C@@H](C)CN([C@H](C)CO)C(=O)c2cc(NS(=O)(=O)c3ccc(Cl)cc3)ccc2O1	0.886
Cn1c(=O)c2c(nc(S(C)(=O)=O)n2C)n(C)c1=O	1.02
C[C@H]1CN([C@@H](C)CO)S(=O)(=O)c2ccc(Br)cc2O[C@H]1CN(C)C(=O)c1cccc(F)c1	1.06
CN(C)CC(=O)N[C@@H]1CC[C@@H](CC(=O)NCCN2CCCCC2)O[C@H]1CO	1.03
Cc1cccc(S(=O)(=O)N2C[C@@H](O)COC[C@H]3O[C@H](CC(=O)N4CCN(C)CC4)CC[C@@H]32)c1	1.1
CC(C)(C)CC(C)(C)c1ccc(OCCOCC[N+](C)(C)Cc2ccccc2)cc1.[Cl-]	0.163
NC(=O)c1c(F)c(F)c(N)c(F)c1F	0.885
C[C@H]1CN([C@@H](C)CO)C(=O)Cc2cc(NC(=O)Nc3ccc(F)cc3)ccc2O[C@H]1CN(C)S(=O)(=O)c1ccc(Oc2ccccc2)cc1	1.14
Cc1ncc(CO)c(CO)c1O.Cl	0.857
CC(N)(Cc1cccc(O)c1)C(=O)O (stereo not given)	1.1
Cn1cnc(S(=O)(=O)N2C[C@@H](O)COC[C@H]3O[C@@H](CC(=O)N4CCN(c5ccccc5)CC4)CC[C@@H]32)c1	1.19
O=C(N/N=C/[C@@H](O)[C@@H](O)[C@H](O)[C@H](O)CO)c1ccccn1	0.851
CCc1ccc(-c2cc3c(=O)n(CC(=O)NCCN4CCOCC4)nc(C)n3n2)cc1	0.852
N#Cc1cccnc1Oc1ccccc1	1.01
CC1(C)S[C@@H]2[C@H](NC(=O)C(C(=O)[O-])c3ccccc3)C(=O)N2[C@H]1C(=O)[O-].[Na+].[Na+] (stereo not given in full)	0.992
C[C@H]1ON(c2ccc(C(=O)OC(C)(C)C)cc2)[C@@H](c2ccc(O)cc2)[C@@H]1C(=O)N1C(=O)OC[C@@H]1c1ccccc1	1.18
COCCNC(=O)C[C@H]1CC[C@@H]2[C@H](COC[C@H](O)CN2C(=O)Nc2ccccc2OC)O1	1.03
C[C@@H]1CN([C@@H](C)CO)C(=O)CCCn2cc(nn2)CO[C@H]1CN(C)C(=O)Nc1ccc(N2CCN(C)CC2)cc1	1.05
CN1C(=O)/C(=C\NCc2ccccc2)C(=O)c2c1n(C)c(=O)n(C)c2=O	1
Cc1ccc(C(=O)CCNc2ccc3c(c2)oc2ccccc23)o1	0.9
N=C(N=C(N)N)Nc1cc(-c2cccs2)n[nH]1	0.953
COc1cccc(S(=O)(=O)Nc2ccc3c(c2)[C@@H]2C[C@H](CC(=O)NC4CCCCC4)O[C@@H](CO)[C@@H]2O3)c1	0.876
